This is an account of results in patent publication US6642355B2, “Endothelin-antagonizing peptide” (priority 1991, dated 2003).

Data set [1] concerns ddy strain mice. The note with it: intraperitoneal, mortality seven days after administration.
Data set [2] addresses endothelin receptor. Put plainly: Endothelin receptor-antagonizing activity: 125I-endothelin-1 binding to bovine lung membrane fraction. The note with it: read-out: concentration (IC50) causing 50% inhibition of endothelin-1 binding, 125I-endothelin-1, 25° C., 2 hours. The protocol: Bovine lung tissue was homogenized at 4° C. using POLYTRON (type PT10/35, manufactured by Kinematica GmbH Co.) in a buffer solution A (pH 8.3) comprising 1 mM NaHCO3, 5 mM ethylenediaminetetraacetic acid, 5 μg/ml leupeptin, 5 μg/ml pepstatin A and 40 μM phenylmethylsulfonyl fluoride. […] The inhibition rate against endothelin receptor binding activity was calculated according to the following equation. […] A: […]

Data set [3] deals with cell line A10 (ATCC CRL 1476). The experiment in a line: Effect on lowering intracellular calcium concentration increased by endothelin (fura-2 fluorescence). In kind it is cell-based, rat. The note with it: 1 μg/ml compound, endothelin 0.3 nM, A10 cells. The protocol: In this test, cell line A10 (ATCC CRL 1476) taken from an aortic unstriated muscle of a rat's breast was suspended in a Dulbecco's modified Eagle culture medium (product of Nissui Seiyaku Co.) containing 10% fetal calf serum (product of Hyclone Co.). The suspended cells were plated on a glass coverslip with a silicon rubber wall for 3 days. The cultured cells were washed with a physiological experimental solution A (pH 7.4) comprising 130 mM NaCl, 2.5 mM KCl, 1 mM CaCl2, 1 MM MgSO4, 1 mM NaH2PO4, 10 mM N-(2-hydroxyethyl)-piperazine-N′-2-ethanesulfonic acid (HEPES), 15 mM glucose and 2 mg/ml bovine serum albumin (BSA) (product of Sigma Co.). Then, 10 μM of fura-2/AM (calcium fluorescent indicator, product of Dojin Kagaku Laboratory) was added to the cells and the mixture was incubated for one hour.
The intracellular calcium concentration of the individual cells and the change in the concentration was determined by measuring the fluorescence intensity at 510 nm, exposed to ultraviolet light at excitation wavelengths 340 nm and 380 nm, with an ARGUS200 system (product of Hamamatsu Photonics Co.).

Data set [4] concerns endothelin-1. Put plainly: Effect on lowering intracellular guanosine-3',5'-cyclic monophosphate concentration increased by endothelin. In kind it is cell-based. The settings on record: 3 μg/ml compound. The text has this: Evaluation was made using the method of Ishii et al., described in the Journal of Pharmacology and Experimental Therapeutics, 259, 3, 1102-1108 (1991).

Data set [5] addresses T1, endothelin receptor (Bos taurus, UniProt P28088).
T1 construct: from tissue; host or cells: bovine cerebellar membrane fraction
T1 sequence (P28088 27-441): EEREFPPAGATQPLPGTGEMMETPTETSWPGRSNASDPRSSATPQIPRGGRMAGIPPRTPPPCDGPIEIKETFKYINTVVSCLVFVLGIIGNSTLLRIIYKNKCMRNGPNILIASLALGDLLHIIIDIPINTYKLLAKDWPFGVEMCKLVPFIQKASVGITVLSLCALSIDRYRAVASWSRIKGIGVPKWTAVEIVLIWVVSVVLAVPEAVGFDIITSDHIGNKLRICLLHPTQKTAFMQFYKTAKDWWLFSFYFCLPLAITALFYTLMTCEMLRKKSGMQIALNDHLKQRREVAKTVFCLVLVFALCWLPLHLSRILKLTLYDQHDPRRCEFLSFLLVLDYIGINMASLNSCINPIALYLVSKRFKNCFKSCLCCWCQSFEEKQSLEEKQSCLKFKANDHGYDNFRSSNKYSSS
Put plainly: Endothelin receptor-antagonizing effect: 125I-endothelin-1 binding to bovine cerebellar tissue membrane fraction.

In data set [6] the target is endothelin receptor of bovine cerebellar tissue (membrane fraction) (bovine). Put plainly: 125I-endothelin-1 displacement, bovine cerebellar membrane fraction.
The target of data set [7] is endothelin receptor of bovine lung tissue (membrane fraction) (bovine). Put plainly: 125I-endothelin-1 displacement, bovine lung membrane fraction, filter binding.

In the case of `C[C@@H]1NC(=O)[C@H]([C@@H](C)O)NC(=O)CNC(=O)[C@H](Cc2c[nH]cn2)NC(=O)[C@H](Cc2c[nH]c3ccccc23)NC(=O)[C@H](CC(N)=O)NC(=O)CNC(=O)C[C@@H](C(=O)N[C@@H](Cc2c[nH]c3ccccc23)C(=O)N[C@@H](Cc2ccccc2)C(=O)N[C@@H](Cc2ccccc2)C(=O)N[C@@H](CC(N)=O)C(=O)N[C@@H](Cc2ccc(O)cc2)C(=O)N[C@@H](Cc2ccc(O)cc2)C(=O)N[C@@H](Cc2c[nH]c3ccccc23)C(=O)O)NC(=O)[C@@H]2CCCN2C1=O` [Compound I-1], the “minimum lethal dose (MLD)” value in data set [1] is at least 300 mg/kg. For the same molecule, the IC50 in data set [2] was determined as 25 nM. In addition, the “increase ratio of intracellular calcium concentration of the test group to the increase of the control group” value in data set [3] is 46%. The “amount of increase in intracellular guanosine-3',5'-cyclic monophosphate concentration relative to that due to only 1 nM endothelin” value in data set [4] is recorded as 0%.
`CC[C@H](C)[C@H](NC(=O)[C@@H](NC(=O)[C@H](CC(=O)O)NC(=O)[C@H](CCC(N)=O)NC(=O)[C@H](Cc1c[nH]cn1)NC(=O)[C@H](C)NC(=O)[C@H](Cc1ccccc1)NC(=O)[C@H](Cc1ccc(O)cc1)NC(=O)[C@H](CC(C)C)NC(=O)[C@H](Cc1c[nH]c2ccccc12)NC(=O)[C@@H]1CC(=O)NCC(=O)N[C@@H](CC(N)=O)C(=O)N[C@@H](Cc2c[nH]c3ccccc23)C(=O)N[C@@H](Cc2c[nH]cn2)C(=O)NCC(=O)N[C@@H]([C@@H](C)O)C(=O)N[C@@H](C)C(=O)N2CCC[C@H]2C(=O)N1)C(C)C)C(=O)N[C@@H](Cc1c[nH]c2ccccc12)C(=O)O` [Compound I-28] came in with an IC50 in data set [5] of 3.8 nM.
Turning to `CC[C@H](C)[C@H](NC(=O)[C@H](CC(=O)O)NC(=O)[C@H](CC(C)C)NC(=O)[C@H](Cc1c[nH]cn1)NC(=O)[C@H](C)NC(=O)[C@H](Cc1ccc(O)cc1)NC(=O)[C@H](Cc1ccc(O)cc1)NC(=O)[C@@H](NC(=O)[C@H](Cc1c[nH]c2ccccc12)NC(=O)[C@@H]1CC(=O)NCC(=O)N[C@@H](CC(N)=O)C(=O)N[C@@H](Cc2c[nH]c3ccccc23)C(=O)N[C@@H](Cc2c[nH]cn2)C(=O)NCC(=O)N[C@@H]([C@@H](C)O)C(=O)N[C@@H](C)C(=O)N2CCC[C@H]2C(=O)N1)C(C)C)C(=O)N[C@H](C(=O)N[C@@H](Cc1c[nH]c2ccccc12)C(=O)O)[C@@H](C)CC` [Compound I-34], in data set [5], the IC50 was determined as 2.5 nM.
Still for that read-out and setting: the same measure for `CC[C@H](C)[C@H](NC(=O)[C@H](CC(=O)O)NC(=O)[C@H](CC(C)C)NC(=O)[C@H](Cc1c[nH]cn1)NC(=O)[C@H](C)NC(=O)[C@H](Cc1ccccc1)NC(=O)[C@H](Cc1ccc(O)cc1)NC(=O)[C@@H](NC(=O)[C@H](Cc1c[nH]c2ccccc12)NC(=O)[C@@H]1CC(=O)NCC(=O)N[C@@H](CC(=O)O)C(=O)N[C@@H](Cc2c[nH]c3ccccc23)C(=O)N[C@@H](Cc2c[nH]cn2)C(=O)NCC(=O)N[C@@H]([C@@H](C)O)C(=O)N[C@@H](C)C(=O)N2CCC[C@H]2C(=O)N1)C(C)C)C(=O)N[C@H](C(=O)N[C@@H](Cc1c[nH]c2ccccc12)C(=O)O)[C@@H](C)CC` [Compound I-41]: 0.25 nM; for `CC[C@H](C)[C@H](NC(=O)[C@H](CC(=O)O)NC(=O)[C@H](CC(C)C)NC(=O)[C@H](Cc1c[nH]cn1)NC(=O)[C@H](C)NC(=O)[C@H](Cc1ccccc1)NC(=O)[C@H](Cc1ccc(O)cc1)NC(=O)[C@@H](NC(=O)[C@H](Cc1c[nH]c2ccccc12)NC(=O)[C@@H]1CC(=O)NCC(=O)N[C@@H](CC(N)=O)C(=O)N[C@@H](Cc2c[nH]c3ccccc23)C(=O)N[C@@H](CCCCN)C(=O)NCC(=O)N[C@@H]([C@@H](C)O)C(=O)N[C@@H](C)C(=O)N2CCC[C@H]2C(=O)N1)C(C)C)C(=O)N[C@H](C(=O)N[C@@H](Cc1c[nH]c2ccccc12)C(=O)O)[C@@H](C)CC` [Compound I-42]: 0.38 nM.

B1: Compound (I-41) (peptide)
peptide: GDWHGTAPDWVYFAHLDIIW
modifications: lactam Gly 1 N-terminus to Asp 9 side chain; all benzyl and nitrobenzyl groups removed
B1 showed an IC50 in data set [6] of 0.25 nM.
Consider GNWHGTAPDWLYFAHQDVIW (lactam Gly 1 N-terminus to Asp 9 side chain, as in Compound (I-15)) [Compound (I-28)], for which the IC50 in data set [6] worked out at 3.8 nM.

B2: Compound (I-1) (peptide)
peptide: GNWHGTAPDWFFNYYW
modifications: lactam: N-terminal amino group of Gly 1 joined to the side-chain carboxyl of Asp 9 (X1-Y1 single bond of formula (I)); inferred from formula (I) and Examples 5, 14 and 15, the drawing is not in the text
With B2, the IC50 in data set [7] is 25 nM.
Regarding GNWHGTAPDWVYFAHLDIIW (lactam Gly 1 N-terminus to Asp 9 side chain, as in Compound (I-15)) [Compound (I-25)], the IC50 in data set [6] turned out to be 0.24 nM.
In data set [6], GNWHGTAPDWVYYAHLDIIW (lactam Gly 1 N-terminus to Asp 9 side chain, as in Compound (I-15)) [Compound (I-34)] registered an IC50 of 2.5 nM.

B3: Compound (I-42) (peptide)
peptide: GNWKGTAPDWVYFAHLDIIW
modifications: lactam Gly 1 N-terminus to Asp 9 side chain; Z, benzyl and nitrobenzyl groups removed
In turn, B3 gave an IC50 in data set [6] of 0.38 nM.
